Source: paper PMC12772190

Assays:
[1] = biological target: bOmpA 1 Cys N-term labeled with Alexa Fluor 488 (TM β-barrel of OmpA) (UniProt P0A910)
[2] = biological target: bOmpA 1 Cys N-term labeled with Alexa Fluor 488 (TM β-barrel of OmpA) (UniProt P0A910); remark: listed apart in the source

Substance | K0.5 of single-turnover folding kinetics, fluorescence of bOmpA-A488, BamAB in EPL proteoliposomes [1] [µM] | K0.5 (BAM concentration at half k fold) of single-turnover folding kinetics, fluorescence of 10 nM bOmpA-A488, BAM in EPL proteoliposomes, 0.1 µM SurA [2] [µM]
BamAB subcomplex (BamA coexpressed with His-tagged BamB) (from UniProt P0A940 21-810; P77774 20-392) | 2.7 | –
Wild-type BAM complex (BamABCDE) (from UniProt P0A940 21-810; P77774 20-392; P0A903 25-344; P0AC02 20-245; P0A937 20-113) | – | 3.1
